{"source": "paper doi:10.1101/2023.02.03.527073v1", "about": "(biorxiv, 2023)", "assay_in_all_cases": "HTRF competition with biotinylated H4ac4 peptide", "format_in_all_cases": "binding", "key": {"CgBdf1 BD1 (CgBD1)": {"biological_target": "CgBdf1 BD1 (CgBD1) (Nakaseomyces glabratus, UniProt Q6FWV7)", "details": "5 nM GST-BD, 30 nM biotinylated H4ac4, pH 7.5, 4 °C, 4 h"}, "CgBdf1 BD2 (CgBD2)": {"biological_target": "CgBdf1 BD2 (CgBD2) (Nakaseomyces glabratus, UniProt Q6FWV7)", "details": "5 nM GST-BD, 250 nM biotinylated H4ac4, pH 7.5, 4 °C, 24 h"}, "[1]": {"biological_target": "human Brd4 BD1 (hBrd4 BD1) (Homo sapiens, UniProt O60885)", "details": "5 nM GST-BD, 50 nM biotinylated H4ac4, pH 7.5, 4 °C, 4 h"}, "[2]": {"biological_target": "human Brd4 BD2 (hBrd4 BD2) (Homo sapiens, UniProt O60885)", "details": "5 nM GST-BD, 600 nM biotinylated H4ac4, pH 7.5, 4 °C, 24 h"}}}
{"smiles": "COc1ccc(CNc2nc(-c3ccccc3)nnc2C)cc1", "values": [{"measurement": "IC50", "setting": "CgBdf1 BD1 (CgBD1); single replicate", "value": 5, "unit": "µM"}, {"measurement": "IC50", "setting": "CgBdf1 BD2 (CgBD2); single replicate", "value": "> 20", "unit": "µM"}]}
{"smiles": "CC(=O)Nc1ccc(CCc2nc3ccc(C(=O)NCc4ccco4)cc3[nH]2)cc1", "values": [{"measurement": "IC50", "setting": "CgBdf1 BD1 (CgBD1); n=3", "value": 2.84, "unit": "µM"}, {"measurement": "IC50", "setting": "CgBdf1 BD2 (CgBD2); n=3", "value": "> 20", "unit": "µM"}, {"measurement": "IC50", "setting": "[1]; n=3", "value": "> 20", "unit": "µM"}, {"measurement": "IC50", "setting": "[2]; n=3", "value": "> 20", "unit": "µM"}]}
{"smiles": "CN(C)c1ccc(CNC(=O)c2cc3c(=O)n(C)ccc3n2C)cc1", "values": [{"measurement": "IC50", "setting": "CgBdf1 BD1 (CgBD1); single replicate", "value": 19, "unit": "µM"}, {"measurement": "IC50", "setting": "CgBdf1 BD2 (CgBD2); single replicate", "value": 8.2, "unit": "µM"}, {"measurement": "IC50", "setting": "[2]; single replicate", "value": 2.7, "unit": "µM"}]}
{"smiles": "COCCN1C(=O)c2ccccc2C(C(=O)Nc2cccc(NC(C)=O)c2)C12CCCCC2", "note": "(stereo not shown)", "values": [{"measurement": "IC50", "setting": "CgBdf1 BD2 (CgBD2); single replicate", "value": "> 20", "unit": "µM"}]}
{"smiles": "CC(=O)Nc1ccc(CCc2nc3cc(C(=O)NC4CC4)ccc3[nH]2)cc1", "values": [{"measurement": "IC50", "setting": "CgBdf1 BD1 (CgBD1); single replicate", "value": "> 20", "unit": "µM"}]}
{"smiles": "CC(=O)Nc1ccc(C(=O)N2CCC3(CC2)NC(c2ccccc2)=NO3)cc1", "values": [{"measurement": "IC50", "setting": "CgBdf1 BD2 (CgBD2); single replicate", "value": "> 20", "unit": "µM"}, {"measurement": "IC50", "setting": "[1]; single replicate", "value": "> 20", "unit": "µM"}]}
{"smiles": "CC(=O)NCC(=O)N1CCC(c2cc(-c3ccc(F)cc3)n[nH]2)CC1", "values": [{"measurement": "IC50", "setting": "CgBdf1 BD1 (CgBD1); single replicate", "value": "> 20", "unit": "µM"}]}
{"smiles": "COc1cc2nc(C(=O)N3CCCCC3)cc(Nc3ccc(Br)cc3)c2cc1OC", "values": [{"measurement": "IC50", "setting": "[1]; n=3", "value": "> 20", "unit": "µM"}, {"measurement": "IC50", "setting": "[2]; n=3", "value": "> 20", "unit": "µM"}]}
